The structures appear in SMILES notation.

Consider one compound from US10350200B2, “Aqueous suspensions of oximes for autoinjectors” (dated 2019).

The nature of data set [1]: Solubility of milled 2-PAM Cl in water at ambient temperature.
Data set [2] is described as follows: Density of 2-PAM Cl/water solution at maximum solubility. The conditions noted are these: 2-PAM Cl at the identified particle size distribution.
For data set [3] the following is noted: white crystalline powder; Canadian Patent Application No. 689384; cited from earlier work.
A short description of data set [4]: Steam sterilization stability of aqueous suspension. The conditions noted are these: 780 mg/g aqueous suspension; 121° C./15 psi, 15 min.

On to `C[n+]1ccccc1/C=N/O`, for which, in data set [1] (780 mg 2-PAM Cl in 220 mg water), the “amount of 2-PAM Cl as solid in suspension when 780 mg placed in 220 mg of water” value is recorded as 660 mg. Moreover, the “amount of 2-PAM Cl that dissolved when 780 mg placed in 220 mg of water” value in data set [1] (780 mg 2-PAM Cl in 220 mg water, calculated from 352 mg/648 mg) was 120 mg. Further, the “amount of 2-PAM Cl that would dissolve in 648 mg of water” value in data set [1] (ambient temperature, milled particle size distribution 10-100 μm, in 648 mg of water) came out at 352 mg. The “amount of 2-PAM Cl that will dissolve in 1 gram of water” value in data set [1] (per 1000 mg H2O, calculated from 120 mg/220 mg) was 545 mg. Besides, the “density of 2-PAM Cl/water solution at maximum solubility” value in data set [2] was “about 1.15 g/cc”. The solubility in water entry in data set [3] is on record as “one gram in less than one cc”. Besides, the “chemical stability after steam sterilization, level of 2-PAM Cl” value in data set [4] was 97 % of pre-sterilization level.
